One series has as its target hERG (KCNH2) (Homo sapiens, UniProt Q12809). Put plainly: in vitro.
Series [1] concerns the target Voltage-gated inwardly rectifying potassium channel KCNH2 (Homo sapiens, UniProt Q12809).

Amino acid sequences for entries named in this document (tags omitted). A change or cut given only in a name is not applied to a line headed by its entry.
UniProt Q12809: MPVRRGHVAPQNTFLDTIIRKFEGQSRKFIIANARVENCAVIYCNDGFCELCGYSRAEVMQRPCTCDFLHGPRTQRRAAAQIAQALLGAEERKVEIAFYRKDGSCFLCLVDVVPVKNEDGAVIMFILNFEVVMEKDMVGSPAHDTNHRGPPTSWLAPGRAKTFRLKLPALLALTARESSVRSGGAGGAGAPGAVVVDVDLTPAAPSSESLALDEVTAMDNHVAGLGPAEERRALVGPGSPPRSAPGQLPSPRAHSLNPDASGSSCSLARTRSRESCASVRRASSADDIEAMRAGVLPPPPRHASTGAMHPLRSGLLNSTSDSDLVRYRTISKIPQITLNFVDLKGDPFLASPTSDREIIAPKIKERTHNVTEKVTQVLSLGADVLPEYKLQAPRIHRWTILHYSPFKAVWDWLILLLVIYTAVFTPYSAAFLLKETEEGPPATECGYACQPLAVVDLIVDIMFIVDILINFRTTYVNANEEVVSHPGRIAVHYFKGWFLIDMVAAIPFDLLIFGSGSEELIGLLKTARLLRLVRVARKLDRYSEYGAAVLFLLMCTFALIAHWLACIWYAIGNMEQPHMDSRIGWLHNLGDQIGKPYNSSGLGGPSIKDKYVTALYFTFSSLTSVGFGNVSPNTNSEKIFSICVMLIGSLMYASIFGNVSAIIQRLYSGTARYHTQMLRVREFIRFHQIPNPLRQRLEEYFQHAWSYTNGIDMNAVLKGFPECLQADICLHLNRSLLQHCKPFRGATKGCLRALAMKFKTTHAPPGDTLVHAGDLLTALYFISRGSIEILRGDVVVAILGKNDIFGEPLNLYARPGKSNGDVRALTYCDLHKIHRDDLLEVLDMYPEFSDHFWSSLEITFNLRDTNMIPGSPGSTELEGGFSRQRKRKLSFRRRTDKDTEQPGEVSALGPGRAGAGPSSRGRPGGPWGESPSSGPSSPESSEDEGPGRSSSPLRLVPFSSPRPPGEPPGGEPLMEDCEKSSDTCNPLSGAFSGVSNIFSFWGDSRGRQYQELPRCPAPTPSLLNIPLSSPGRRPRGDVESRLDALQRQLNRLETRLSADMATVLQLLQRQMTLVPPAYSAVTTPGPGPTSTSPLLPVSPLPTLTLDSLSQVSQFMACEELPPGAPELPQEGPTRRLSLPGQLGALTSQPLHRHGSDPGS

In the case of `CN1CCN(CCCCN2C(=O)CN(/N=C/c3ccc(-c4ccc(Cl)cc4)o3)C2=O)CC1` [AZIMILIDE], the IC50 on hERG (KCNH2) was 1410 nM.

On to `CC(C)COCC(CN(Cc1ccccc1)c1ccccc1)N1CCCC1` (centres undefined) [BEPRIDIL], for which the IC50 against hERG (KCNH2) was 550 nM.

In series [1], `CNCCCN1c2ccccc2CCc2ccccc21` [DESIPRAMINE] had an IC50 of 1380 nM.

Turning to `C1CCC(C(CC2CCCCN2)C2CCCCC2)CC1` (centres undefined) [PERHEXILINE], the IC50 in series [1] was 7760 nM.

These data come from ChEMBL document CHEMBL1150324, “Support vector machines classification of hERG liabilities based on atom types” (Bioorg Med Chem, 2008).
